Values of other authors as cited in patent US20260356887A1, “NOVEL MYD88 INHIBITOR FOR TREATMENT OF AUTOIMMUNE DISEASES AND USES THEREOF” (S&K THERAPEUTICS, priority 2023, published 2026).

Tested on: RAW 264.7 cells (LPS-induced activation of TLR4)
Details: cited: Masaud Shah, et al., Biomaterials 2020; cited from earlier work

SMILES: CC[C@H](C)[C@H](NC(=O)[C@H](CCCCN)NC(=O)[C@@H](NC(=O)[C@H](CCC(N)=O)NC(=O)[C@@H](N)CCCNC(=N)N)[C@@H](C)CC)C(=O)N[C@@H](Cc1c[nH]c2ccccc12)C(=O)N[C@@H](Cc1ccccc1)C(=O)N[C@@H](CCC(N)=O)C(=O)N[C@@H](CC(N)=O)C(=O)N[C@@H](CCCNC(=N)N)C(=O)N[C@@H](CCCNC(=N)N)C(=O)N[C@@H](CCSC)C(=O)N[C@@H](CCCCN)C(=O)N[C@@H](Cc1c[nH]c2ccccc12)C(=O)N[C@@H](CCCCN)C(=O)N[C@@H](CCCCN)C(=O)O [CPP]
- LPS-induced TNF-α secretion (CPP alone): no inhibitory effect
